Values of other authors as cited in patent publication US20070203190A1, “Hydroxylamines and derivatives for the inhibition of complement activation” (priority 2006, published 2007).

Tested on: complement activation
Conditions: in vivo animal models

In the case of “5G1.1-scFv: a humanized monoclonal anti-C5 antibody [Compound 5G1.1-scFv]”, the “suppression of complement activation” value is listed as “suppress complement activation”.
